From patent US10588952B2, “Conjugate vaccine using trimming function of ERAP1” (SUMITOMO DAINIPPON PHARMA CO., LTD., priority 2013, dated 2020)

The chains behind the UniProt entries cited, without tags or fusion partners. Where a name states a change or a piece, a line headed by the entry shows the natural chain unless it says otherwise.
UniProt Q9NZ08: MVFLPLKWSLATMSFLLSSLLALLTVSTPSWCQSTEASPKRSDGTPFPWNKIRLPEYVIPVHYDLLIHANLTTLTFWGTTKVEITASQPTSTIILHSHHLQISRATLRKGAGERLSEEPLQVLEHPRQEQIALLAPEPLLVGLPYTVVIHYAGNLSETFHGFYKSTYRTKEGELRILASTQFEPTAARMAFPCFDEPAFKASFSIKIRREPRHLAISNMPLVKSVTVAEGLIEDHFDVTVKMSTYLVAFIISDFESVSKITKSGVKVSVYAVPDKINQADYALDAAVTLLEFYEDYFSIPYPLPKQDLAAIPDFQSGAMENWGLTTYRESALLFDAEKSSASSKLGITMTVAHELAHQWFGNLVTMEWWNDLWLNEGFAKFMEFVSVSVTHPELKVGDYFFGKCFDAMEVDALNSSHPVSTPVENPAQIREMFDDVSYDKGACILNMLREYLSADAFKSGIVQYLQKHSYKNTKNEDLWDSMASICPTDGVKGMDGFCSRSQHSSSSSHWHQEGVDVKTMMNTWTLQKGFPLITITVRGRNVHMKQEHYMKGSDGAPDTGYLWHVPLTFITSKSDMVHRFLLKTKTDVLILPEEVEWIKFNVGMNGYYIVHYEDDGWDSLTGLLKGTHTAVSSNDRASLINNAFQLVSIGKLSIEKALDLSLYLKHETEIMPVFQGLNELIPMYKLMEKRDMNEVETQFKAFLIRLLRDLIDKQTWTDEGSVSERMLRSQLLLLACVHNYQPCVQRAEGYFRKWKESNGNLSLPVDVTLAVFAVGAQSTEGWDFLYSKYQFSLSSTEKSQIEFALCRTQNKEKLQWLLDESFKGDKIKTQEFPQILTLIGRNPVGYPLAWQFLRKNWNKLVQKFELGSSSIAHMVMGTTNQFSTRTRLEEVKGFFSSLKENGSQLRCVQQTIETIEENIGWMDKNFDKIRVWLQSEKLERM

Experiments:
ERAP1 [1] = target: T1, ERAP1 (Homo sapiens, UniProt Q9NZ08); test: Test of trimming of N-terminal amino acid by ERAP1 (Experimental Example 1, peptides of Examples 1-20); format: biochemical; conditions: ERAP1 solution 50 ng/ml, pH 8.0 Tris.HCl buffer, room temperature, 1.0 hr later
ERAP1 [2] = target: T1, ERAP1; test: Test of trimming of N-terminal amino acid by ERAP1 (Experimental Example 6, Examples 31-49); format: biochemical; conditions: ERAP1 solution 50 μg/ml, pH 8.0 Tris.HCl buffer, 30° C., 1.0 hr later
[3] = test system: HLA-A0201 transgenic mouse; test: In vivo CTL induction ability, IFNγ ELISPOT, formula (4) versus long chain peptides SEQ ID NOs: 233, 234 (Comparative Example 2); conditions: for number of cells that responded to SEQ ID NO: 53 compared to mouse administered with the compound of formula (4): 265 μg/site versus formula (4) 250 μg/site; for IFNγ production specific to the peptide of interest shown by SEQ ID NO: 19 / IFNγ production specific to the peptide of interest shown by SEQ ID NO: 53: formula (4) 250 μg/site, SEQ ID NO: 233 or 234 265 μg/site, with IFA
[4] = test system: HLA-A0201 transgenic mouse; test: In vivo CTL induction ability, IFNγ ELISPOT, formula (4) versus long chain peptides SEQ ID NOs: 231, 232 (Comparative Example 1); conditions: for IFNγ production specific to the peptide of interest shown by SEQ ID NO: 19 / IFNγ production specific to the peptide of interest shown by SEQ ID NO: 53: formula (4) 250 μg/site, SEQ ID NO: 231 or 232 225 μg/site, with IFA
[5] = 225 μg/site versus formula (4) 250 μg/site

- formation rate of KIFGSLAFL (SEQ ID NO: 53)(%) (ERAP1 [1]): 0%
Structure (SMILES): CC[C@H](C)[C@H](NC(=O)[C@H](CCCCN)NC(=O)[C@@H]1CCCN1C(=O)[C@@H](N)CS)C(=O)N[C@@H](Cc1ccccc1)C(=O)NCC(=O)N[C@@H](CO)C(=O)N[C@@H](CC(C)C)C(=O)N[C@@H](C)C(=O)N[C@@H](Cc1ccccc1)C(=O)N[C@@H](CC(C)C)C(=O)O [Example 15]

- formation rate of KIFGSLAFL (SEQ ID NO: 53)(%) (ERAP1 [2]): 0.0%
Structure (SMILES): CC[C@H](C)[C@H](NC(=O)[C@H](CCCCN)NC(=O)[C@H](CS)NC(=O)[C@@H](N)CCCNC(=N)N)C(=O)N[C@@H](Cc1ccccc1)C(=O)NCC(=O)N[C@@H](CO)C(=O)N[C@@H](CC(C)C)C(=O)N[C@@H](C)C(=O)N[C@@H](Cc1ccccc1)C(=O)N[C@@H](CC(C)C)C(=O)O [Example 32]

- formation rate of KIFGSLAFL (SEQ ID NO: 53)(%) (ERAP1 [2]): 0.9%
Structure (SMILES): CC[C@H](C)[C@H](NC(=O)[C@H](CCCCN)NC(=O)[C@H](CS)NC(=O)[C@@H](N)Cc1c[nH]c2ccccc12)C(=O)N[C@@H](Cc1ccccc1)C(=O)NCC(=O)N[C@@H](CO)C(=O)N[C@@H](CC(C)C)C(=O)N[C@@H](C)C(=O)N[C@@H](Cc1ccccc1)C(=O)N[C@@H](CC(C)C)C(=O)O [Example 47]

- formation rate of KIFGSLAFL (SEQ ID NO: 53)(%) (ERAP1 [2]): 0.0%
Structure (SMILES): CC[C@H](C)[C@H](NC(=O)[C@H](CCCCN)NC(=O)[C@H](CS)NC(=O)[C@@H](N)CCCCN)C(=O)N[C@@H](Cc1ccccc1)C(=O)NCC(=O)N[C@@H](CO)C(=O)N[C@@H](CC(C)C)C(=O)N[C@@H](C)C(=O)N[C@@H](Cc1ccccc1)C(=O)N[C@@H](CC(C)C)C(=O)O [Example 41]

- formation rate of KIFGSLAFL (SEQ ID NO: 53)(%) (ERAP1 [2]): 0.0%
Structure (SMILES): CC[C@H](C)[C@H](NC(=O)[C@H](CCCCN)NC(=O)[C@H](CS)NC(=O)[C@@H](N)Cc1c[nH]cn1)C(=O)N[C@@H](Cc1ccccc1)C(=O)NCC(=O)N[C@@H](CO)C(=O)N[C@@H](CC(C)C)C(=O)N[C@@H](C)C(=O)N[C@@H](Cc1ccccc1)C(=O)N[C@@H](CC(C)C)C(=O)O [Example 38]

The next lines start with the compound.

Structure (SMILES): CC[C@H](C)[C@H](NC(=O)[C@@H](N)CCCCN)C(=O)N[C@@H](Cc1ccccc1)C(=O)NCC(=O)N[C@@H](CO)C(=O)N[C@@H](CC(C)C)C(=O)N[C@@H](C)C(=O)N[C@@H](Cc1ccccc1)C(=O)N[C@@H](CC(C)C)C(=O)NCC(=O)NCC(=O)NCC(=O)NCC(=O)NCC(=O)NCC(=O)NCC(=O)N[C@@H](CC(C)C)C(=O)N[C@@H](Cc1ccc(O)cc1)C(=O)N[C@@H](CC(=O)O)C(=O)NCC(=O)N[C@@H](CCSC)C(=O)N[C@@H](CCC(=O)O)C(=O)N[C@@H](Cc1c[nH]cn1)C(=O)N[C@@H](CC(C)C)C(=O)O [SEQ ID NO: 234]
- number of cells that responded to SEQ ID NO: 53 compared to mouse administered with the compound of formula (4) [3]: very small
- IFNγ production specific to the peptide of interest shown by SEQ ID NO: 19 [3]: detected
- IFNγ production specific to the peptide of interest shown by SEQ ID NO: 53 [3]: detected

Structure (SMILES): CC[C@H](C)[C@H](NC(=O)[C@H](CCCCN)NC(=O)[C@H](CC(C)C)NC(=O)[C@H](Cc1c[nH]cn1)NC(=O)[C@H](CCC(=O)O)NC(=O)[C@H](CCSC)NC(=O)CNC(=O)[C@H](CC(=O)O)NC(=O)[C@H](Cc1ccc(O)cc1)NC(=O)[C@H](CC(C)C)NC(=O)CN)C(=O)N[C@@H](Cc1ccccc1)C(=O)NCC(=O)N[C@@H](CO)C(=O)N[C@@H](CC(C)C)C(=O)N[C@@H](C)C(=O)N[C@@H](Cc1ccccc1)C(=O)N[C@@H](CC(C)C)C(=O)O [SEQ ID NO: 231]
- number of cells that responded to SEQ ID NO: 19 compared to mouse administered with the compound of formula (4) [4, 5]: small
- number of cells that responded to SEQ ID NO: 53 compared to mouse administered with the compound of formula (4) [4, 5]: very small
- IFNγ production specific to the peptide of interest shown by SEQ ID NO: 19 [4]: detected
- IFNγ production specific to the peptide of interest shown by SEQ ID NO: 53 [4]: detected

Structure (SMILES): CC[C@H](C)[C@H](NC(=O)[C@H](CCCCN)NC(=O)CNC(=O)[C@@H](N)CS)C(=O)N[C@@H](Cc1ccccc1)C(=O)NCC(=O)N[C@@H](CO)C(=O)N[C@@H](CC(C)C)C(=O)N[C@@H](C)C(=O)N[C@@H](Cc1ccccc1)C(=O)N[C@@H](CC(C)C)C(=O)O [Example 8]
- formation rate of KIFGSLAFL (SEQ ID NO: 53)(%) (ERAP1 [1]): 0%

Structure (SMILES): CC[C@H](C)[C@H](NC(=O)[C@H](CCCCN)NC(=O)[C@H](CC(N)=O)NC(=O)[C@@H](N)CS)C(=O)N[C@@H](Cc1ccccc1)C(=O)NCC(=O)N[C@@H](CO)C(=O)N[C@@H](CC(C)C)C(=O)N[C@@H](C)C(=O)N[C@@H](Cc1ccccc1)C(=O)N[C@@H](CC(C)C)C(=O)O [Example 4]
- formation rate of KIFGSLAFL (SEQ ID NO: 53)(%) (ERAP1 [1]): 0%

Structure (SMILES): CC[C@H](C)[C@H](NC(=O)[C@H](CCCCN)NC(=O)[C@H](CC(=O)O)NC(=O)[C@@H](N)CS)C(=O)N[C@@H](Cc1ccccc1)C(=O)NCC(=O)N[C@@H](CO)C(=O)N[C@@H](CC(C)C)C(=O)N[C@@H](C)C(=O)N[C@@H](Cc1ccccc1)C(=O)N[C@@H](CC(C)C)C(=O)O [Example 5]
- formation rate of KIFGSLAFL (SEQ ID NO: 53)(%) (ERAP1 [1]): 0%

Structure (SMILES): CC[C@H](C)[C@H](NC(=O)[C@H](CCCCN)NC(=O)CNC(=O)CNC(=O)CNC(=O)CNC(=O)CNC(=O)CNC(=O)[C@H](CC(C)C)NC(=O)[C@H](Cc1c[nH]cn1)NC(=O)[C@H](CCC(=O)O)NC(=O)[C@H](CCSC)NC(=O)CNC(=O)[C@H](CC(=O)O)NC(=O)[C@H](Cc1ccc(O)cc1)NC(=O)[C@H](CC(C)C)NC(=O)CN)C(=O)N[C@@H](Cc1ccccc1)C(=O)NCC(=O)N[C@@H](CO)C(=O)N[C@@H](CC(C)C)C(=O)N[C@@H](C)C(=O)N[C@@H](Cc1ccccc1)C(=O)N[C@@H](CC(C)C)C(=O)O [SEQ ID NO: 233]
- number of cells that responded to SEQ ID NO: 53 compared to mouse administered with the compound of formula (4) [3]: very small
- IFNγ production specific to the peptide of interest shown by SEQ ID NO: 19 [3]: detected
- IFNγ production specific to the peptide of interest shown by SEQ ID NO: 53 [3]: detected

Structure (SMILES): CC[C@H](C)[C@H](NC(=O)[C@@H](N)CCCCN)C(=O)N[C@@H](Cc1ccccc1)C(=O)NCC(=O)N[C@@H](CO)C(=O)N[C@@H](CC(C)C)C(=O)N[C@@H](C)C(=O)N[C@@H](Cc1ccccc1)C(=O)N[C@@H](CC(C)C)C(=O)NCC(=O)N[C@@H](CC(C)C)C(=O)N[C@@H](Cc1ccc(O)cc1)C(=O)N[C@@H](CC(=O)O)C(=O)NCC(=O)N[C@@H](CCSC)C(=O)N[C@@H](CCC(=O)O)C(=O)N[C@@H](Cc1c[nH]cn1)C(=O)N[C@@H](CC(C)C)C(=O)O [SEQ ID NO: 232]
- number of cells that responded to SEQ ID NO: 53 compared to mouse administered with the compound of formula (4) [4, 5]: very small
- IFNγ production specific to the peptide of interest shown by SEQ ID NO: 19 [4]: detected
- IFNγ production specific to the peptide of interest shown by SEQ ID NO: 53 [4]: detected

Each block holds one compound with its values, some of them ahead of it.
